{"source": "patent US20090181098A1", "about": "“Hmg-Co-a Reductase Inhibitor Enhancement of Bone and Cartilage” (OsteoScreen IP, LLC, priority 2006, published 2009)", "molecules": {"B1": {"name": "BMP: bone morphogenetic protein BMP2, 100 ng/ml, positive control in calvarial culture (protein, UniProt P12643 283-396, looked up)", "Bone morphogenetic protein 2": "QAKHKQRKRLKSSCKRHPLYVDFSDVGWNDWIVAPPGYHAFYCHGECPFPLADHLNSTNHAIVQTLVNSVNSKIPKACCVPTELSAISMLYLDENEKVVLKNYQDMVVEGCGCR"}}, "tested_on": "neonatal murine calvaria", "experiment": "Neonatal murine calvarial explant culture, bone and cartilage formation", "assay_type": "cell-based, mouse", "details": "7 days after exposure", "procedure": "Experimental Summary: Determine the effectiveness of varying does of Lovastatin scaffolds on cartilage formation using murine calvarial cultures. Four day old calvarial explant cultures were incubated with media containing scaffold material that releases 0, 0.4 or 8 μg/day. The extent of new cartilage is then quantitated by imaging analysis.\nExperimental Design Four day old Swiss white pups were employed as they are generally a healthy mouse strain. Calvaria from 4-day old Swiss white mouse pup mice were dissected out and cut in half. The excised hemi-calvariae were placed on metal grids (at the surface) in 1 ml BGJ media with Fitton-Jackson modification BGJ media (Sigma) containing 0.1% BSA with glutamine. The bones are incubated at 37° C. in a 5% humidified incubator for a period of 24 h and then transferred to wells containing 1 ml media with test compounds and further incubated under the above conditions for 72-96 h. The bones are then removed, fixed in 10% buffered formalin for 24 h, decalcified in 14% EDTA overnight, embedded in paraffin and 4 μm-thick sections cut and stained with H&E.\nDosing. Lovastatin scaffold material (LPGA polymer scaffold impregnated with 2.5 mg lovastatin, 5 mg pieces, estimated release is 0.4 μg/24 h) applied for the first 48 h and then removed. Calvaria are removed at day 7 and day 14. […] Cartilage formation is assessed histologically."}
{"molecule": "B1", "values": [{"measurement": "Bone formation in cultures of neonatal murine calvaria", "value": "stimulates bone formation"}]}
